In ChEMBL document CHEMBL4196126, “Optimization of 3-Pyrimidin-4-yl-oxazolidin-2-ones as Orally Bioavailable and Brain Penetrant Mutant IDH1 Inhibitors” (ACS Med Chem Lett, 2018) one finds IC50 data, which are given here for one molecule.

By UniProt entry, the sequences of proteins in these tests, tags left out. Residues count along the entry.
UniProt O75874, 2-414 R132H limits assumed: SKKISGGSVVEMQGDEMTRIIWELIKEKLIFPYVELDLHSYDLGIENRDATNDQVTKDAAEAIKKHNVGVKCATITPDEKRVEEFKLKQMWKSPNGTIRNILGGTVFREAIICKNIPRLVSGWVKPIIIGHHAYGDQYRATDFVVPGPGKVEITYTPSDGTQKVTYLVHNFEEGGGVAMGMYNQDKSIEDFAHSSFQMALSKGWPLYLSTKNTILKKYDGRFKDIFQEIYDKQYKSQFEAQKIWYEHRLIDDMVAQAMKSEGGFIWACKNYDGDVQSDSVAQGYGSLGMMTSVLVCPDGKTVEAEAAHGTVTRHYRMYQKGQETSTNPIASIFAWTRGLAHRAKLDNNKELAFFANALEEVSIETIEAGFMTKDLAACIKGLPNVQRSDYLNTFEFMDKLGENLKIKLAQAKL

This test deals with Isocitrate dehydrogenase [NADP] cytoplasmic (Homo sapiens, UniProt O75874, R132H). Nature of the test: Inhibition of IDH1 R132H mutant (unknown origin) using alphaKG as substrate in presence of NADPH by LC-MS/MS analysis.

pIC50: −log10 of the molar value.

The pIC50 is the IC50 on a negative log10 scale, so that one unit is a factor of ten. In the case of `CC(C)[C@H]1COC(=O)N1c1ccnc(N[C@@H](C)c2nc(-c3ccc(Cl)cc3)no2)n1`, the pIC50 was 7.44.
